Laboratory results: ChEMBL document CHEMBL2424640, “Dihydrothiazolopyridone derivatives as a novel family of positive allosteric modulators of the metabotropic glutamate 5 (mGlu5) receptor” (J Med Chem, 2013)

Amino acid sequences for entries named in this document (tags omitted).
UniProt P41594, whole entry: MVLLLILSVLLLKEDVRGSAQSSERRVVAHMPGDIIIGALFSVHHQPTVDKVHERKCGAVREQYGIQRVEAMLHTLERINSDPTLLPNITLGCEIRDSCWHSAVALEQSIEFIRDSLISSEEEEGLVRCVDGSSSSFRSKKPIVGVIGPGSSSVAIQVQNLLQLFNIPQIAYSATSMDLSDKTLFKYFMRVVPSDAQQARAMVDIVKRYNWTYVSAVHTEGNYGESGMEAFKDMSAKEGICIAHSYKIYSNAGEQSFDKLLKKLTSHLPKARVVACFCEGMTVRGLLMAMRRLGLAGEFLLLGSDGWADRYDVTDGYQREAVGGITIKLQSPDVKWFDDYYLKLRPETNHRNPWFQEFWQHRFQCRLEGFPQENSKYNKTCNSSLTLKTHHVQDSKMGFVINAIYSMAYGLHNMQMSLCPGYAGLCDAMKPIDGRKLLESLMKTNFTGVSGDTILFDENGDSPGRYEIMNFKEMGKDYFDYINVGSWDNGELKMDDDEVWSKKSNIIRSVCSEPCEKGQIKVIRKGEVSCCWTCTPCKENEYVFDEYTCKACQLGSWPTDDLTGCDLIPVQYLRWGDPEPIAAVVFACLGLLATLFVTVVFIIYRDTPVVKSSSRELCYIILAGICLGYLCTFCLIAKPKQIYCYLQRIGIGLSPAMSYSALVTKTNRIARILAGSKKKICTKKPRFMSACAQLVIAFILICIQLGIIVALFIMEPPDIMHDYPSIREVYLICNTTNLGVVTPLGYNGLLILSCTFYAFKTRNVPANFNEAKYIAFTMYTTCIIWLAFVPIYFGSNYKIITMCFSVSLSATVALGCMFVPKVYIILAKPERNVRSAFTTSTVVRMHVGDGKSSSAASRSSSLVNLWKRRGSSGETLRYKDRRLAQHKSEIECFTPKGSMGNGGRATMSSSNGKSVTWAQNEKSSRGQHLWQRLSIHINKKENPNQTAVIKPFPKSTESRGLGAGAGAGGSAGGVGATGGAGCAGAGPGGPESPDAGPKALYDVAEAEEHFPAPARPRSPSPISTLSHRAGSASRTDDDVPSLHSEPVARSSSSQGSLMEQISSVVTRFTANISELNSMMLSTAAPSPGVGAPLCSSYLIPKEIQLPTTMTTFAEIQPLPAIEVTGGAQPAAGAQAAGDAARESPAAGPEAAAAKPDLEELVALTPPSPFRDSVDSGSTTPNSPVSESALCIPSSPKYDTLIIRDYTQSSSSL

Molecular target: Metabotropic glutamate receptor 5 (Homo sapiens, UniProt P41594)

In the case of N#Cc1cccc(C(=O)Nc2cc(-c3ccccc3)nn2-c2ccccc2)c1, the EC50 is reported as 176 nM.
